Experimental data: patent publication US20200270125A1

Target: recombinant human MASP-2 (CCP1-CCP2-SP fragment) (human) (UniProt O00187)
Experiment: ELISA: recombinant MASP-2 (CCP1-CCP2-SP) coated directly on the plate, A450

EC50 (read off the curve): 0.06 nM
Substance: OMS721 (antibody)
